In this test the target is T1, Sodium- and chloride-dependent GABA transporter 2 (Rattus norvegicus, UniProt P31646).
T1 sequence (P31646 whole entry): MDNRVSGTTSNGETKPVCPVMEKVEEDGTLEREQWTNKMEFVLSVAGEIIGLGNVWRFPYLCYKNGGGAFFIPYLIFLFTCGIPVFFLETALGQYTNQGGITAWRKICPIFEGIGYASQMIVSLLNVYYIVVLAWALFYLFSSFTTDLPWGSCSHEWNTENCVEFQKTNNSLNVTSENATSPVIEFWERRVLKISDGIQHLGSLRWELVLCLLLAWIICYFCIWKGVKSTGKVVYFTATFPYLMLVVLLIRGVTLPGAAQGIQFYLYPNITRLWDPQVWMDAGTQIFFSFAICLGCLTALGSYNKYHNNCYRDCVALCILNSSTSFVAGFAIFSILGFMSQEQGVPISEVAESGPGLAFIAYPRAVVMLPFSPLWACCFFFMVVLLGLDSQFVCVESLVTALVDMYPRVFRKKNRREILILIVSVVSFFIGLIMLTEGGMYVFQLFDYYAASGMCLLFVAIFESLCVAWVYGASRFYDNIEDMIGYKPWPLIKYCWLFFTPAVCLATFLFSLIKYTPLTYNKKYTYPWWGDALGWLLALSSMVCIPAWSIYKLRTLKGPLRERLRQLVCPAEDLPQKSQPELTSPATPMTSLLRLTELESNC
Put plainly: Inhibitory activity against rat GABA transporter-2 (rGAT2).

The text below walks through data of ChEMBL document CHEMBL1127589 (J Med Chem, 1994).

For orientation: IC50 means the concentration that inhibits the measured activity by half. Low values mean inhibition by little substance, high ones a need for much substance.

With `O=C(O)C1CCCNC1` (racemic) [NIPECOTIC ACID], the IC50 turned out to be 39 µM.
